What is called inhibition is the change of the read-out against control, counted positive when it falls.

Structures are written as SMILES. The entries are a selection whose mix differs from that of the whole data set. Active and inactive are the calls of the source. How the calls were made is not given here.

The experiment deals with Eukaryotic translation initiation factor 4H (Homo sapiens) (UniProt Q15056). Description: eIF4H binding inhibition – biochemical, uHTS, fluorescence polarization, translation initiation inhibitor project, primary screen (AID 2012). To be noted: eIF4H fluorescence polarization binding assay; at 35 µM; active compounds read high. For orientation: In fluorescence polarisation assays a small probe gives low polarisation when free and higher when bound to something large.
In the case of `N#Cc1ccc(C(=O)NCC2(N3CCCCC3)CCCCC2)cc1`, the inhibition is inactive: 7.1%.

As for `CC(C)(C)OC(=O)N1CCC(N(C(=O)c2ccccc2)c2ccc(Cl)cc2)CC1`, the inhibition was inactive: -1.3%.

As to `CN(C)C1(CNC(=O)c2cccc(C#N)c2)CCCCC1`, the inhibition is inactive: -12.7%.

Consider `CCCN1CCC(Nc2cc(OC)cc(OC)c2)CC1`, for which the inhibition was inactive: 40.9%.

For `c1ccc(CN2CCC(Nc3ccccc3)CC2)cc1`, the inhibition is inactive: 5.5%.

For the compound `COc1ccc(C(=O)NCC2(N3CCOCC3)CCCCC2)cc1OC`, the inhibition is inactive: -7.2%.

Turning to `CCOC(=O)N1CCC(Nc2ccc(C)cc2)CC1`, the inhibition was inactive: 3.6%.

Turning to `N/C(=N\O)c1c(N)no[n+]1[O-]`, the inhibition was inactive: -6.7%.

Regarding `O=C(OC1CN2CCC1CC2)C1c2ccccc2C=Cc2ccccc21` (centres undefined), the inhibition is inactive: 12.5%.

For the compound `CN1CCC(Nc2ccc(F)c(Cl)c2)CC1`, the inhibition was inactive: 16.2%.

As for `CCOc1ncccc1C(=O)NCC1(N2CCOCC2)CCCCC1`, the inhibition is inactive: -6.8%.

Regarding `O=C(O)C1(Nc2ccccc2)CCN(Cc2ccccc2)CC1`, the inhibition was inactive: 2.3%.

On to `CC(C)(C)OC(=O)N1CCC(Nc2ccccc2)CC1`, for which the inhibition was inactive: -2.4%.

As for `CCCOc1ccc(C(=O)NCC2(N(C)C)CCCCC2)cc1`, the inhibition is inactive: -10.7%.

For the compound `COc1cccc(C(=O)N(c2cc(C)cc(C)c2)C2CCN(C(=O)OC(C)(C)C)CC2)c1`, the inhibition was inactive: -8.2%.

As to `COc1cc(OC)cc(C(=O)NCC2(N3CCOCC3)CCCCC2)c1`, the inhibition is inactive: 6.1%.

For `CCC(CO)(C(=O)OC1CN2CCC1CC2)c1ccccc1` (centres undefined), the inhibition is inactive: -7.1%.

For `CN1CCC(Nc2ccc(Cl)cc2)CC1`, the inhibition was inactive: -13.4%.

On to `CCCOc1ccc(C)cc1CN(CCCl)CCCl`, for which the inhibition is active: 50%.

On to `COc1cc(OC)cc(C(=O)NCC2(N3CCCCC3)CCCCC2)c1`, for which the inhibition was inactive: -6.8%.

As for `Fc1ccccc1NC1CCN(Cc2ccccc2)CC1`, the inhibition is inactive: 5.3%.

Regarding `CCN1CCC(Nc2cccc(F)c2)CC1`, the inhibition was inactive: -0.8%.

As for `CN(C)c1ccc(C(=O)NCC2(N3CCCCC3)CCCCC2)cc1`, the inhibition was inactive: -1.2%.

With `CCOc1ccc(C)cc1CN(CCCl)CCCl`, the inhibition was active: 60.4%.

In the case of `CCOC(=O)N1CCC(Nc2ccc(F)cc2)CC1`, the inhibition is inactive: -1.7%.

As for `COc1ccc(NC2CCN(CCc3ccccc3)CC2)c(OC)c1`, the inhibition was inactive: -2.7%.

`O=C(NCC1(N2CCCCC2)CCCCC1)c1ccc(F)cc1`: the inhibition is inactive: -9.7%.

In the case of `Cc1ccc(OCC(C)C)c(CN(CCCl)CCCl)c1`, the inhibition is active: 59%.

For the compound `CCOC(=O)N1CCC(Nc2cccc(C)c2)CC1`, the inhibition was inactive: -9.9%.

In the case of `COc1cc(C(=O)NCC2(N(C)C)CCCCC2)ccc1OC(F)F`, the inhibition was inactive: -9.3%.

Turning to `COc1ccc(C(=O)NCC2(N3CCCCC3)CCCCC2)c(OC)c1OC`, the inhibition is inactive: -12.9%.

For the compound `CC(C)(C)OC(=O)N1CCC(N(C(=O)c2ccccc2)c2ccc(F)cc2)CC1`, the inhibition was inactive: -2%.

On to `COc1ccc(C(=O)NCC2(N3CCCCC3)CCCCC2)cc1`, for which the inhibition was inactive: 4.6%.

As for `O=C(NCC1(N2CCCCC2)CCCCC1)c1ccc(=O)[nH]c1`, the inhibition is inactive: -1.9%.

As to `CSc1ccccc1C(=O)NCC1(N2CCCCC2)CCCCC1`, the inhibition is inactive: -0.6%.

In the case of `Cc1cc(C)cc(N(C(=O)c2ccccc2)C2CCN(C(=O)OC(C)(C)C)CC2)c1`, the inhibition was inactive: -3.6%.

For `O=C(NCC1(N2CCOCC2)CCCCC1)c1cc2ccccc2o1`, the inhibition was inactive: -2.4%.

With `N#CC1(Nc2ccccc2)CCN(Cc2ccccc2)CC1`, the inhibition was inactive: 0.6%.

As to `O=C(OC1CN2CCC1CC2)C1c2ccccc2Oc2ccccc21` (centres undefined), the inhibition is inactive: -4.6%.

Regarding `CCOC(=O)N1CCC(Nc2ccc(OC)cc2)CC1`, the inhibition is inactive: -3.4%.

Consider `CC(C)c1ccc(NC2CCN(C(=O)OC(C)(C)C)CC2)cc1`, for which the inhibition was inactive: 8.8%.

Take `CN(C)c1cccc(C(=O)NCC2(N3CCCCC3)CCCCC2)c1`: the inhibition is inactive: 0.1%.

Turning to `COc1ccc(CN(CCCl)CCCl)cc1Cl`, the inhibition was inactive: 37.4%.

With `COc1cc(OC)c(C(=O)NCC2(N(C)C)CCCCC2)cc1OC`, the inhibition is inactive: -3.6%.

Take `CCCOc1ccc(C(=O)NCC2(N(C)C)CCCCC2)cc1OC`: the inhibition was inactive: 6.7%.

Take `O=C(NCC1(N2CCCCC2)CCCCC1)c1ccc(OC(F)F)cc1`: the inhibition was inactive: -9.4%.

Take `N#CC1(Nc2ccccc2)CCN(CCc2ccccc2)CC1`: the inhibition was inactive: -12%.

Consider `CCN1CCC(Nc2ccc(Cl)cc2)CC1`, for which the inhibition was inactive: -10.9%.

For the compound `O=C(NCC1(N2CCCCC2)CCCCC1)c1cccc([N+](=O)[O-])c1`, the inhibition was inactive: -0.8%.

With `O=C(NCC1(N2CCCCC2)CCCCC1)c1cccc(C(F)(F)F)c1`, the inhibition was inactive: 3.3%.

For the compound `O=C(NCC1(N2CCOCC2)CCCCC1)c1cc(=O)[nH]c2ccccc12`, the inhibition is inactive: 5.7%.

For the compound `COc1cc(C(=O)NCC2(N3CCCCC3)CCCCC2)ccc1OC(F)F`, the inhibition is inactive: 3%.

Regarding `COc1ccc(NC2CCN(C(=O)OC(C)(C)C)CC2)cc1`, the inhibition is inactive: 4.6%.

For `CN1CCN(CCOC(=O)C(O)(c2ccccc2)c2ccccc2)CC1`, the inhibition is inactive: -8.9%.

The values are drawn from PubChem BioAssay AID2012 (Sanford-Burnham Center for Chemical Genomics, 2009).
